Literature values, collected in US20230100844A1, “IBOGAINE COMBINATION TREATMENT” (ATAI Life Sciences AG, priority 2021, published 2023).

By UniProt entry, the sequences of proteins in these tests, tags left out.
UniProt P10635, whole entry: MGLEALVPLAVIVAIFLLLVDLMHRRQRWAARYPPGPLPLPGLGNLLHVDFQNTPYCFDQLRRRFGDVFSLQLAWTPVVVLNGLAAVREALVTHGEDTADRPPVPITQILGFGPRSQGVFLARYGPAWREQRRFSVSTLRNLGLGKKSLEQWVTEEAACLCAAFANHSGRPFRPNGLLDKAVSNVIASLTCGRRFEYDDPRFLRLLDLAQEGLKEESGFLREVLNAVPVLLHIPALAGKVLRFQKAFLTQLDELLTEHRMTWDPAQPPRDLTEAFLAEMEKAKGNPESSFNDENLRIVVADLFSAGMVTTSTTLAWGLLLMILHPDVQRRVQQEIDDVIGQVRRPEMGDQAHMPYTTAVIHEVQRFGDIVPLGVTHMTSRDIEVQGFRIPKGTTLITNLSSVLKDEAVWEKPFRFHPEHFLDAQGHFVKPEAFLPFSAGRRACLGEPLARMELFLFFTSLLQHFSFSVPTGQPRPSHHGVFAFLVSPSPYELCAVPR

Biological target: T1, CYP2D6 (Homo sapiens, UniProt P10635)
T1 construct: host or cells: human subjects (endogenous enzyme of gut wall and liver)
Conditions: humans; cited from earlier work

CNCCC(Oc1ccc(C(F)(F)F)cc1)c1ccccc1 (stereo not shown) [Fluoxetine, fluoxetine]
in vivo CYP2D6 inhibition: shown to inhibit CYP2D6 in humans after single administration
